The values below come from ChEMBL document CHEMBL3351455, “Discovery of 2-(cyclopentylamino)thieno[3,2-d]pyrimidin-4(3H)-one derivatives as a new series of potent phosphodiesterase 7 inhibitors” (J Med Chem, 2014).

Chains of the proteins cited; added tags and fusions are not shown. Lines headed by an entry give the natural chain unless they say otherwise; changes in a name come on top.
UniProt Q13946: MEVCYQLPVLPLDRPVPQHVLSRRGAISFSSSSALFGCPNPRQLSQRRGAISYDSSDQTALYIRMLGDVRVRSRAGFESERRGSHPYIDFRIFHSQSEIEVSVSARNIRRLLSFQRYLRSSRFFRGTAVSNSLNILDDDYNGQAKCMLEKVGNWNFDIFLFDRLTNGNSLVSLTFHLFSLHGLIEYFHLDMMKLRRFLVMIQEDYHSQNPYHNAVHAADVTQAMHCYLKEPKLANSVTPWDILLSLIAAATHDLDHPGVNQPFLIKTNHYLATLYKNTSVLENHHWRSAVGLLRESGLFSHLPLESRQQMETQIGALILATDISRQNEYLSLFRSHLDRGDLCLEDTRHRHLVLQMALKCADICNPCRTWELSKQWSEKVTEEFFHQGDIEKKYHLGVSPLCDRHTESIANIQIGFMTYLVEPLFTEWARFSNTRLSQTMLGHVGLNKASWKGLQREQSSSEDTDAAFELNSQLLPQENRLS

Molecules are shown by their SMILES.

For the experiment, the target named is High affinity 3',5'-cyclic-AMP phosphodiesterase 7A (Homo sapiens, UniProt Q13946). Description: Inhibition of human PDE7A1 expressed in insect cells assessed as inhibition of [3H]cAMP to [3H]AMP hydrolysis after 30 mins by scintillation counting.

Regarding `C#Cc1csc2c(=O)n(CC)c(NC3CCCC3)nc12`, the IC50 (as a rule, the point on the concentration scale where inhibition reaches its midpoint) stood at 45 nM.
